# How the values were obtained:
# [1] = Nasal administration of diazepam and midazolam preparations in two healthy volunteers; conditions: IN commercial formulations: DZP solvents 40% propylene glycol and 10% ethanol; MDZ pH=3
# [2] = in vivo; cited from earlier work
structure (smiles),measurement,setting,value
"CN1C(=O)CN=C(c2ccccc2)c2cc(Cl)ccc21 [DZP, diazepam]",nasal discomfort (in words),[1],significant discomfort
same,First-pass Effect,[2],Low
